Data reported in paper PMC6137088, “The Role of Outer Membrane Proteins and Lipopolysaccharides for the Sensitivity of Escherichia coli to Antimicrobial Peptides” (Frontiers in Microbiology, 2018).

Tested on: E. coli ATCC25922
Type: cell-based, Escherichia coli
Details: Table 4; E. coli ATCC25922 (smooth LPS); triplicates
Text: The E. coli strains 470, F632, F653 and F2513 were kindly provided by Prof. H. Brade and Prof. S. Muller-Loennies, Research Center Borstel, Leipniz-Center for Medicine and Biosciences, Germany. E. coli BW25113 (CGSC#:7636), a derivative of F^−, λ^− E. coli K12 strain BD792 is the wild-type strain which was used in the generation of the KEIO collection and ordered from the Coli Genetic Stock Centre (CGSC, Yale University). E. coli JW3596, E. coli JW3024, E. coli JW3595, E. coli JW3606, E. coli JW0212, E. coli JW1667, E. coli JW0554, E. coli JW3605 and E. coli JW3600 are isogenic mutants of waaC, waaE, waaF, waaG, gmhA (lpcA), lpp, ompT, waaP, or waaY derived from the parental strain E. coli BW25113 and were ordered from the KEIO collection (Baba et al., [2006]). E. coli ATCC25922 is a clinical isolate, serotype O6, often used as control strain in antimicrobial susceptibility testing was ordered from the ATCC strain collection. […]
The minimum inhibitory concentrations (MICs) of the AMPs were measured in 96-well microtiter plates according the Clinical and Laboratory Standards Institute [CLSI, formerly National Committee for Clinical Laboratory Standards (NCCLS)] […] After incubation, the minimal inhibitory concentration (MIC) is determined by the lowest concentration showing no visible growth. […]

CC[C@H](C)[C@H](NC(=O)CN)C(=O)NCC(=O)N[C@@H](C)C(=O)N[C@H](C(=O)N[C@@H](CC(C)C)C(=O)N[C@@H](CCCCN)C(=O)N[C@H](C(=O)N[C@@H](CC(C)C)C(=O)N[C@H](C(=O)N[C@H](C(=O)NCC(=O)N[C@@H](CC(C)C)C(=O)N1CCC[C@H]1C(=O)N[C@@H](C)C(=O)N[C@@H](CC(C)C)C(=O)N[C@H](C(=O)N[C@@H](CO)C(=O)N[C@@H](Cc1c[nH]c2ccccc12)C(=O)N[C@H](C(=O)N[C@@H](CCCCN)C(=O)N[C@@H](CCCNC(=N)N)C(=O)N[C@@H](CCCCN)C(=O)N[C@@H](CCCNC(=N)N)C(=O)N[C@@H](CCC(N)=O)C(=O)N[C@@H](CCC(N)=O)C(N)=O)[C@@H](C)CC)[C@@H](C)CC)[C@@H](C)O)[C@@H](C)O)C(C)C)C(C)C [Melittin]
Antimicrobial activity (MIC): 16 µg/mL
